Results on one substance are retold here after patent US8835467B2, “SIR2 regulation” (Albert Einstein College of Medicine of Yeshiva University, priority 2003, dated 2014).

The series concerns T1, NC(=O)c1cccnc1.
T1 construct: made in house
Nature of the series: purified protein, by the assay type. The series is classed as biochemical, Saccharomyces cerevisiae. To be noted: other: yeast enzyme; saturating NAD+ and peptide; pH 7.8.

What is called Km is the concentration of substrate that gives half-maximal velocity.

As to “Yeast SIR2p (Saccharomyces cerevisiae S288C)”, the Michaelis constant (Km) is 160 µM.
